Patent US9868727B2, “Factor XIa inhibitors” (Merck Sharp & Dohme Corp., priority 2014, dated 2018)
pIC50: −log10 of the molar value.

Amino acid sequences for entries named in this document (tags omitted). Residues count along the entry.
UniProt P03951, 388-625 limits assumed: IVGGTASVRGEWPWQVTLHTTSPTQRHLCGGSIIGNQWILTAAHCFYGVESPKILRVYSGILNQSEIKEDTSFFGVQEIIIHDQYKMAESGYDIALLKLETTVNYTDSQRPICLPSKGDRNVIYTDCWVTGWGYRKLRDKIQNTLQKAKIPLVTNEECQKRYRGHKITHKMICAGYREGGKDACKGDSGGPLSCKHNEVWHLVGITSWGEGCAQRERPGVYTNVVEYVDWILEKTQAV
UniProt P03951, 19-387 partner limits assumed: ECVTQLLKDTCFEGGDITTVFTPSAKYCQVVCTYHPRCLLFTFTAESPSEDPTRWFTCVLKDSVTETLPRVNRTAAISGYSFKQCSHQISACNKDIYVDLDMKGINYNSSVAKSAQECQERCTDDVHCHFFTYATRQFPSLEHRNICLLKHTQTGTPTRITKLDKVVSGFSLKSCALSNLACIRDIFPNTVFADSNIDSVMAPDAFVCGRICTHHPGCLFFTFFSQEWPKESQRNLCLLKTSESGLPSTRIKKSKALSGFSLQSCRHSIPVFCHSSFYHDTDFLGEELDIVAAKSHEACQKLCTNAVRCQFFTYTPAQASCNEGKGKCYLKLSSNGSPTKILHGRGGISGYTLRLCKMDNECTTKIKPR
UniProt P03952, 391-638 limits assumed: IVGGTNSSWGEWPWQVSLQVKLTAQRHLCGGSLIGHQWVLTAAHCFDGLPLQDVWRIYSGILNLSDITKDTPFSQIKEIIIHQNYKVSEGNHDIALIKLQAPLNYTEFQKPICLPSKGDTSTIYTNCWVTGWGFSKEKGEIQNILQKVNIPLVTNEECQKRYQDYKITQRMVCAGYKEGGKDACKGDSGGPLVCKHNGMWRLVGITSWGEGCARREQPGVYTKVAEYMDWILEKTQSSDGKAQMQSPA
UniProt P03952, 20-390 partner limits assumed: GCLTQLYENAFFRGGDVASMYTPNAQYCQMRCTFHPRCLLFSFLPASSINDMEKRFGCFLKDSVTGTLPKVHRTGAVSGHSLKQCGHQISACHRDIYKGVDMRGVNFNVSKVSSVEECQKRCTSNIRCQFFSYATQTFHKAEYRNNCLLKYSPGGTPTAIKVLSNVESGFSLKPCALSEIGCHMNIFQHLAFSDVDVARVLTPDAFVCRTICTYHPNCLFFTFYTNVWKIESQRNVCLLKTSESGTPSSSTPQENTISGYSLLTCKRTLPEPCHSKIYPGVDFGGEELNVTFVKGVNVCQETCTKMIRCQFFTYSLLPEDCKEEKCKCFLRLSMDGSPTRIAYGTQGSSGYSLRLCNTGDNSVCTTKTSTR

Experiments:
[1] = target: purified human Factor XIa (Homo sapiens, UniProt P03951); assay: Factor XIa Assay; format: biochemical; conditions: read-out: F11a IC50, fluorogenic substrate Z-Gly-Pro-Arg-AFC 100 μM, 40 pM enzyme, pH 7.4
[2] = target: purified Human plasma kallikrein (Homo sapiens, UniProt P03952); assay: Kallikrein Assay; conditions: read-out: PK IC50; Plasma Kallekrein IC50; fluorogenic substrate Acetyl-K-P-R-AFC, 0.5 nM enzyme, pH 7.4

Row | SMILES | pIC50 [1] | pIC50 [2]
1 | COC(=O)c1scc(-c2c[nH]c(C(Cc3ccccc3)c3ccc(-c4cc(Cl)ccc4-n4cnnc4)c[n+]3[O-])n2)c1F (racemic) | 8.08 | 7.24
2 | COC(=O)Nc1ccc(-c2ccnc(C(Cc3ccccc3)c3ccc(-c4cc(Cl)ccc4-n4cnnn4)c[n+]3[O-])c2)cc1 (single isomer, unassigned) [Example 81] | 5.90 | 
3 | COC(=O)Nc1ccc(-c2ccnc(C(Cc3ccccc3)c3ccc(-c4cc(Cl)ccc4-n4cnnn4)c[n+]3[O-])c2)cc1 (single isomer, unassigned) [Example 82] | 6.90 | 
